The values that follow are results of earlier work, collected in patent publication US20150257983A1, “FLUORIDE-CONTAINING VARNISH FOR APPLICATION TO THE TOOTH SURFACE” (Ivoclar Vivadent AG, priority 2012, published 2015).

For this series the following is noted: in water, 25° C.

For Sodium hexafluorophosphate monohydrate, the “Solubility (g/100 g H2O)” value is recorded as 103 g/100 g H2O and the “Solubility (mol/kg H2O)” value is 5.5 mol/kg H2O.
